For series [1], the system named is synthetic oligoribonucleotide substrate of 15 nucleotides, mutant N-ras mRNA (codon 13). The series is described as follows: Kinetics with synthetic substrates (multiple turnover), ribozymes against mutant N-ras. It counts as biochemical. The conditions noted are these: Table IB, modifications of MRE763C. As to the method:
In one investigation, short synthetic oligoribonucleotides of 15 nucleotides chain length served as substrates. Cleavage kinetics of all ribozymes were carried out under Michaelis-Menten conditions. […] Ribozymes RE990 or RE1035 against the wild type mRNA as well as their substrate complexes on the other hand reveal Tm values of approximately 52° C.
Kinetic constants Km and kcat were determined from Eadie-Hofstee plots carried out with 5'-^32 P-labeled substrate. The RNA substrate was labeled by reaction with T4 polynucleotide kinase and [γ-^32P]-ATP. 5'-end labeled substrate was purified from [γ-^32 P]-ATP with CENTRICON-3 tubes. Ribozyme and substrate were heated separately for 1 min at 75° C. in 50 mM Tris-Cl (pH 7.5). After cooling to 37° C. for 5 min, 100 mM MgCl2 were added to a final concentration of 10 mM, and the solution was incubated for an additional 5 min at 37° C. Multiple turnover reactions were carried out in a volume of 100 μl with concentrations of substrate between 20-500 nM and ribozyme concentrations from 2 to 5 nM in 50 mM Tris-Cl (pH 7.5) and 10 mM MgCl2 at 37° C. Reactions were initiated by addition of ribozyme. The reaction was stopped by mixing the ribozymes with an equal volume of stop solution (8 M urea, 25 mM EDTA). The cleavage reactions were analyzed on 20% denaturing polyacrylamide gels (8 M urea) and scanned on a Molecular Dynamic Phosphorimaging system.

The test system of series [2] is in vitro transcribed mutant N-ras mRNA (codon 13). Nature of the series: Kinetics with in vitro transcribed RNA (single-turnover), mutant. It counts as biochemical. Particulars: Table IIC, modifications of MRE763C. The source says: In a further investigation, RNA containing the mutant or wild type N-ras sequence from transcription initiation site to termination site was synthesized by in vitro transcription. In order to achieve efficient mRNA cleavage, the target sequence of the substrate (NUX-triplet, N=A,G,C,U; X=C,A,U) is not allowed to be double-stranded or part of a stable hairpin. The in vitro transcribed RNA served as substrate for five ribozymes mentioned above. The catalytic efficiency was examined under "single-turnover" conditions to detect the splice products.
For in vitro transcription, pMS5-NRAS, pMS5A-NRAS and pMS5B-NRAS were linearized by EcoRI digestion, phenol-extracted and ethanol-precipitated. Transcription was carried out in a 100 μl mixture containing 50 ng/μl linearized plasmid DNA, 10 mM DTT, 40 mM Tris-Cl (pH 7.5), 50 mM NaCl, 8 mM MgCl2, 2 mM spermidine, 500 μM rNTP's, 0.8 U/μl RNAse-lnhibitor, 2 μCi/μl [α-^32 P]-ATP and 2.5 U/μl T7 RNA Polymerase. […]
The cleavage efficiency under "single-turnover" conditions was determined in a volume of 10 μl using 20-1200 nM ribozyme, 50 mM Tris-Cl (pH 7.5) and 10 mM MgCl2. […] The reaction was analyzed on 6% denaturing polyacrylamide gels and scanned on a Molecular Dynamics Phosphor Imager. The single turnover kcat /Km values were determined as described by Heidenreich et al., J. Biol. Chem. 267:1904 (1992).

Among the data in patent publication US6037463A, “Enzymatic RNA molecules that cleave mutant N-RAS” (priority 1996, dated 2000) are Km, kcat and kreact values, retold here.

As to “5'-CCAACACCUGAUGAGCGUUAGCGAAACCUGCU-3' (chemistry not given here)”, in series [1], the Km worked out at 0.072 µM and the turnover number (kcat) amounted to 0.06267 s⁻¹. Also, in series [2], the Km came to 0.071 µM and the kreact was 266 10^-6 s^-1.
